Test [1] deals with MV-4-11 cell subcutaneous transplant model. The note with it: Exp. Ex. 3-2, oral, 34 days after transplantation.
Test [2] shares this test system. To be noted: Exp. Ex. 3-3, oral, 31 days after transplantation.
The test system is the same in test [3]. To be noted: Exp. Ex. 3-4, oral, 32 days after transplantation.

Where a name gives a salt, the structure may show the parent alone. Read-outs that look alike come from different tables or passages of the source.

In the case of `COc1nc(N(C)[C@H]2C[C@@H](NCc3ccc(-c4cc(OC)c(OC)nn4)cc3)C[C@H]2O)c2cc(CC(F)(F)F)sc2n1` [Example 27, (1R,2S,4R)-4-({[4-(5,6-dimethoxypyridazin-3-yl)phenyl]methyl}amino)-2-{[2-methoxy-6-(2,2,2-trifluoroethyl)thieno[2,3-d]pyrimidin-4-yl](methyl)amino}cyclopentan-1-ol Hydrochloride], the “Tumor growth inhibitory rate (%)” value in test [1] (qdx18, 100 mg/kg/day) is reported as 100%.
For the compound `COc1cc(-c2ccc(CN[C@H]3C[C@@H](O)[C@@H](N(C)c4ncnc5sc(CC(F)(F)F)cc45)C3)cc2)nnc1OC` [Example 25, (1R,2S,4R)-4-({[4-(5,6-dimethoxypyridazin-3-yl)phenyl]methyl}amino)-2-{methyl[6-(2,2,2-trifluoroethyl)thieno[2,3-d]pyrimidin-4-yl]amino}cyclopentan-1-ol Hydrochloride], the “Tumor growth inhibitory rate (%)” value in test [1] (qdx18, 12.5 mg/kg/day) is 33.0%; in test [1] (qdx18, 50 mg/kg/day), 100%; in test [1] (qdx18, 100 mg/kg/day) it was 100%.
With `COc1cc(-c2ccc(CN[C@H]3C[C@@H](O)[C@@H](N(C)c4ncnc5sc(CC(F)(F)F)cc45)C3)cc2)cnc1C#N` [Example 22, 5-[4-({[(1R,3R,4S)-3-hydroxy-4-{methyl[6-(2,2,2-trifluoroethyl)thieno[2,3-d]pyrimidin-4-yl]amino}cyclopentyl]amino}methyl)phenyl]-3-methoxypyridine-2-carbonitrile Hydrochloride], the “Tumor growth inhibitory rate (%)” value is listed as 27% in test [2] (qdx17, 25 mg/kg/day); 99% in test [2] (qdx17, 50 mg/kg/day); 100% in test [2] (qdx17, 100 mg/kg/day).
With `CN(c1ncnc2sc(CC(F)(F)F)cc12)[C@H]1C[C@@H](NCc2ccc(-c3cccc4c3cnn4S(C)(=O)=O)cc2)C[C@H]1O` [Example 23, (1R,2S,4R)-4-[({4-[1-(methanesulfonyl)-1H-indazol-4-yl]phenyl}methyl)amino]-2-{methyl[6-(2,2,2-trifluoroethyl)thieno[2,3-d]pyrimidin-4-yl]amino}cyclopentan-1-ol Hydrochloride], the “Tumor growth inhibitory rate (%)” value is given as 37% in test [2] (qdx17, 25 mg/kg/day); 97% in test [2] (qdx17, 50 mg/kg/day); 100% in test [2] (qdx17, 100 mg/kg/day).
As for `COc1cc(-c2ccc(CN[C@H]3C[C@@H](O)[C@@H](N(C)c4ncnc5sc(CC(F)(F)F)cc45)C3)cc2)cnc1OC.Cl` [Example 67, (1R,2S,4R)-4-({[4-(5,6-dimethoxypyridin-3-yl)phenyl]methyl}amino)-2-{methyl[6-(2,2,2-trifluoroethyl)thieno[2,3-d]pyrimidin-4-yl]amino}cyclopentan-1-ol hydrochloride], the “Tumor growth inhibitory rate (%)” value is recorded as 9% in test [3] (qdx16, 25 mg/kg/day); 61% in test [3] (qdx16, 50 mg/kg/day); 100% in test [3] (qdx16, 100 mg/kg/day).
For `COc1cc(-c2ccc(CN[C@H]3C[C@@H](O)[C@@H](N(C)c4ncnc5sc(CC(F)(F)F)cc45)C3)cc2)cnc1F.Cl` [Example 68, (1R,2S,4R)-4-({[4-(6-fluoro-5-methoxypyridin-3-yl)phenyl]methyl}amino)-2-{methyl[6-(2,2,2-trifluoroethyl)thieno[2,3-d]pyrimidin-4-yl]amino}cyclopentan-1-ol hydrochloride], the “Tumor growth inhibitory rate (%)” value in test [2] (qdx17, 25 mg/kg/day) was 0%; in test [2] (qdx17, 50 mg/kg/day), 42%; in test [2] (qdx17, 100 mg/kg/day) it was 97%.
On to `COc1cc(-c2ccc(CN[C@H]3C[C@@H](O)[C@@H](N(C)c4ncnc5sc(CC(F)(F)F)cc45)C3)cc2)cnc1C.Cl` [Example 60, (1R,2S,4R)-4-({[4-(5-methoxy-6-methylpyridin-3-yl)phenyl]methyl}amino)-2-{methyl[6-(2,2,2-trifluoroethyl)thieno[2,3-d]pyrimidin-4-yl]amino}cyclopentan-1-ol hydrochloride], for which the “Tumor growth inhibitory rate (%)” value in test [3] (qdx16, 25 mg/kg/day) amounted to 43%; in test [3] (qdx16, 50 mg/kg/day), 97%; in test [3] (qdx16, 100 mg/kg/day) it was 100%.

The values above are taken from patent publication US12528822B2, “Cycloalkane-1,3-diamine derivative” (Daiichi Sankyo Company, Limited, priority 2018, dated 2026).
